{"source": "ChEMBL document CHEMBL4145474", "about": "“Discovery of novel piperonyl derivatives as diapophytoene desaturase inhibitors for the treatment of methicillin-, vancomycin- and linezolid-resistant Staphylococcus aureus infections” (Eur J Med Chem, 2018)", "target": "T1, 4,4'-diapophytoene desaturase (4,4'-diaponeurosporene-forming) (Staphylococcus aureus (strain Newman)) (UniProt O07855)", "T1 sequence (whole entry)": "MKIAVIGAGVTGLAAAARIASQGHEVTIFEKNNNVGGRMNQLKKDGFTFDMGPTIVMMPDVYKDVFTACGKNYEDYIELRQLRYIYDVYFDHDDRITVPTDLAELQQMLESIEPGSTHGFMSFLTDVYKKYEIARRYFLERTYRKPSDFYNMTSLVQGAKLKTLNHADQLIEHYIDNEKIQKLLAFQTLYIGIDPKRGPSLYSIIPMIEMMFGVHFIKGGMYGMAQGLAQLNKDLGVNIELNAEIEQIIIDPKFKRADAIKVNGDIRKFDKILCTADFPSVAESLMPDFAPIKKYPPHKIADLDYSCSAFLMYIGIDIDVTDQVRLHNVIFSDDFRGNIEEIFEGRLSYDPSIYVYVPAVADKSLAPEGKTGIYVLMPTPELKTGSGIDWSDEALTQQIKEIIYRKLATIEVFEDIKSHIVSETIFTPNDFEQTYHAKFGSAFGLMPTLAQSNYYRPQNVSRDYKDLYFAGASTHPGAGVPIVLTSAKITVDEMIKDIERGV", "test": "Inhibition of Staphylococcus aureus Newman 6His-tagged CrtN expressed in Escherichia coli BL21(DE3) assessed as 4,4'-diapophytoene accumulation by UV-HPLC analysis", "settings": "Staphylococcus aureus subsp. aureus str. Newman", "in_short": "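Substrate was E. coli-derived diapophytoene emulsified with phosphatidylcholine in 0.02 M HEPES pH 7.5. Enzyme was lysate of E. coli BL21(DE3) expressing 6His-CrtN (0.5 mM IPTG, 16 °C), about 1.41 mg CrtN, plus FAD from a 10 mM stock. Run anaerobically (glucose oxidase 20 U/mL, catalase 20000 U/mL, glucose 2 mM final) overnight at 37 °C, stopped with methanol. Triplicate; diapophytoene monitored by HPLC at 286 nm.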", "note": "Calls of active or inactive are those of the source. The rule behind the calls is not given here."}
{"smiles": "CN(C/C=C/c1ccccc1)Cc1cccc2ccccc12", "values": [{"measurement": "inhibition", "result": "Active"}]}
